This is an account of results in US11649255B2, “Indazoles as hematopoietic progenitor kinase 1 (HPK1) inhibitors and methods using same” (1st Biotherapeutics, Inc., priority 2020, dated 2023).

Chains of the proteins cited; added tags and fusions are not shown.
UniProt Q92918, whole entry: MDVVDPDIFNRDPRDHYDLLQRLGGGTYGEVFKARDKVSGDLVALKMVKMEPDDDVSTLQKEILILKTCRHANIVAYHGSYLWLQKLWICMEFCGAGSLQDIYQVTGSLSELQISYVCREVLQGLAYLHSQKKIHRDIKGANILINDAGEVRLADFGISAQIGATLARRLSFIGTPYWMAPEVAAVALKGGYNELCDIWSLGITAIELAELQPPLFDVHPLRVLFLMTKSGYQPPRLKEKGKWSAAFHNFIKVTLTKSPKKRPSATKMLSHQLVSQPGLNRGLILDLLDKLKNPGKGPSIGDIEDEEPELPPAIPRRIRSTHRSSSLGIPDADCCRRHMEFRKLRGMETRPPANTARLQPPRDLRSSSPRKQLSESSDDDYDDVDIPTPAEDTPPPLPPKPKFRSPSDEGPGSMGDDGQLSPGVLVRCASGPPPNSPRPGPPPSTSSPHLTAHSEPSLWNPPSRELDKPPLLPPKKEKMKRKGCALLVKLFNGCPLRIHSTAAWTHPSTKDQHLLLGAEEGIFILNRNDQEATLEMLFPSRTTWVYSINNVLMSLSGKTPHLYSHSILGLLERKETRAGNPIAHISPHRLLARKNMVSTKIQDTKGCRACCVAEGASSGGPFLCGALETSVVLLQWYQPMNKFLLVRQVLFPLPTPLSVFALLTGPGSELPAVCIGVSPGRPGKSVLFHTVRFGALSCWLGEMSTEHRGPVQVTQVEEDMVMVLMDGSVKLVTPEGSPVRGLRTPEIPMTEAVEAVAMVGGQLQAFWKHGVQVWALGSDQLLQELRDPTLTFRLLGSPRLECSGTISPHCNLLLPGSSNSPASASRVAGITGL

The assay has as its target recombinant human HPK1 (Homo sapiens (Human), UniProt Q92918). The experiment in a line: HPK1 kinase assay (ADP-Glo). As to conditions: read-out: HPK1 IC50, 25 μM ATP, MBP substrate. The procedure: HPK1 kinase activity was measured by Promega's ADP-Glo™ kinase assay. In this assay, 5 ng of recombinant human HPK1 (signalchem) is incubated with 5 μL of compounds (0.5% DMSO), 5 μL of MBP (0.5 μg/μl) and 5 μL of ATP (25 μM) in buffer (40 mM Tris, 7.5; 20 mM MgCl2; 0.1 mg/ml BSA; 5 μM DTT). The assay was started by incubating the reaction mixture in a 96-well plate at 30′ C for 40 minutes. After the incubation, 25 uL ADP-Glo reagent was added and the reaction was incubated at room temperature for 40-min to stop the reaction and degrade residual ATP. The ADP product was then converted to ATP by adding 50 uL per well of detection reagent. Luminescence was detected after 30-min room temperature incubation with the Molecular device I3X plate reader. The IC50 values were calculated from a series of percent inhibition values determined at a range of inhibitor concentration using software routines as implemented in the GraphPad Prism 7 software and SigmaPlot13.0.
A general note: ADP-Glo first removes unused ATP, then detects ADP through luciferase.

In general, IC50 refers to the concentration at which inhibition is half-maximal. As to `Cc1ccc2[nH]ncc2c1-c1ccn2nc(NC(=O)[C@@H]3C[C@@H]3F)cc2c1`, the IC50 was less than 100 nM.
